According to patent US20210371422A1, “MORPHINAN DERIVATIVE” (priority 2016, published 2021):

Experiments:
[1] = Intracerebral migration test (concentration in cerebrospinal fluid and plasma); details: rat, 10 mg/kg s.c., 30 minutes after administration
Experimental: Intracerebral Migration Test
A Wistar male 5-9 week old rat was used for the test. A test substance was dissolved in saline or a 4.5% cyclodextrin aqueous solution, and 1 mol/L hydrochloric acid (0.5 to 2.0 v/v %) was added thereto as necessary. The test substance was subcutaneously administered to the rat at a dose of 3 or 10 mg/kg. Thirty minutes later, cerebrospinal fluid was collected from the cisterna magna under isoflurane anesthesia. Subsequently, laparotomy was performed, and blood was collected from the vena cava. Thereafter, the blood was centrifuged at 1500×g at 4° C. for 15 minutes to obtain plasma. The animal was euthanized promptly by aortic cutting. The concentrations of the test substance in cerebrospinal fluid and plasma were measured using LC-MS/MS.

opioid δ receptor = opioid δ receptor (Mus musculus, UniProt P32300); assay: [3H]DPDPE competitive binding test in a mouse cerebral membrane fraction; details: read-out: Ki value of binding affinity to the opioid δ receptor
From the text: A comparative compound was a compound described in Example 12 of WO 2014/136305 (Patent Literature 6). […] The concentration in the cerebrospinal fluid at this time was almost equal to a Ki value of 1.2 nmol/L of binding affinity to the opioid δ receptor (measured by [^3H]DPDPE competitive binding test in a mouse cerebral membrane fraction).

Wistar male rats = assay: Rat elevated plus maze test; details: s.c.
Experimental: Rat Elevated Plus Maze Test
An anxiolytic effect of a compound provided by the present invention was examined using the rat elevated plus maze test.
For the test, 7 to 9 weeks old Wistar male rats were used. […] Each test substance was dissolved in a 4.5% aqueous solution of cyclodextrin, and orally administered 2 hours before the start of the test. The test data were automatically analyzed by using video image action analysis software (Smart3.0, PanLab S.L., PanLab), and wall-less running route staying time ratio (%) was calculated.

For `NCCCN1CCC23c4cc(O)ccc4CC1C21CCC2C3[C@@H](CN2C(=O)c2ccccc2)C1` (stereo partly shown), the “Concentration in cerebrospinal fluid” value [1] was 3.6 nM, the Concentration in plasma [1] was 2400 nM and the Ki (opioid δ receptor) was 1.2 nM. The “minimum effective medicinal dose” value (Wistar male rats) was 10 mg/kg.
